Reference: patent US12383629B2, “DNA-affibody-drug nanoparticles for inhibiting the metastasis of cancer cells overexpressing HER2” (Arizona Board of Regents on behalf of Arizona State …, priority 2019, dated 2025)

Test system: HER2 receptor
Assay: Western blot assay for HER2 targeting
Type: cell-based
Settings: BT474, 1 h; 1 μM DOX, 0.02 μM III, 1 μM Herceptin
Protocol: Western Blot Analysis—BT474 cells (50,000 cells/mL) were seeded in a 6-well cell culture plate and incubated in 1 mL of Gibco® RPMI 1640 medium supplemented with 10% fetal bovine serum (FBS) and 1% antibiotic-antimycotic mix antibiotic supplement at 37° C. for 24 h in a 5% CO2 atmosphere. […] The cells were washed with 1 mL 1×PBS buffer, and treated with 150 μL Cellstripper® non-enzymatic cell dissociation solution. After centrifugation at 500×g for 3 min, the cell pellets were washed with 150 μL 1×PBS buffer and treated with 60 μL, of 1×RIPA lysis buffer containing protease and phosphatase inhibitor cocktail (Sigma-Aldrich). After three cycle of freeze, thaw and sonication following by centrifugation at 15,000×g for 2 min at 4° C., the clear supernatant was collected.
Total protein concentration was measured using a BCA kit (Thermo Fisher Scientific). NuPAGE LDS Sample Buffer (4×) and NuPAGE Reducing Agent (10×) was added to the lysate which was denatured at 70° C. for 5 min. Equal amounts of lysates (25 μg) were loaded on a 4%-12% SDS-polyacrylamide Bis-Tris gels (Invitrogen) according to the manufacturer's recommendations and then proteins were transferred to nitrocellulose membranes. […]

Herceptin: monoclonal antibody drug targeting HER2, used as positive control [reference compound]
level of phosphorylated HER2 (Y1221/1222): increased
